Test system: TT tumors
Assay: Naked anti-CEA MAb alone on growth of TT tumors in nude mice
Conditions: for T-test analysis of the area under the growth curves versus untreated: then weekly

## hMN-14: humanized (CDR-grafted) Class III anti-CEA monoclonal antibody MN-14, naked
0.25 mg starting 1 day after TT cells
  T-test analysis of the area under the growth curves versus untreated: significant growth inhibition
0.25 mg starting 3 days after TT cells
  T-test analysis of the area under the growth curves versus untreated: significant growth inhibition
0.25 mg starting 7 days after TT cells, p=0.057 at 5 weeks
  T-test analysis of the area under the growth curves versus untreated: did not reach the 95% confidence limit
All weekly doses 0.125 mg to 2.0 mg/mouse from day 1
  mean tumor sizes and area under the growth curves versus untreated: Significant differences

Reference: patent US8778342B2, “Antibody therapy” (Immunomedics, Inc., priority 2002, dated 2014)
